# Rows were chosen to be rich in hits. Some 3.7% of all compounds tested hit in one or more screens of this group.
# Nrf2 block: blocks Nrf2 signaling; A549 ARE-Fluc reporter, luciferase luminescence, 18-24 h; Potency, µM (doses to about 46 µM), without a hit: at the highest dose activity change, negative = inhibition, most hits filed as inhibitors; hit rate 2.1% among 360,000; also: potency is read from the fitted curve at half-maximal effect; % is scaled to controls: 0 for no effect and ±100 for the full control effect; nearly all actives have a fitted effect of over 60% in size
#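 In this cell-based qHTS, ARE-driven firefly luciferase in A549 cells reports Nrf2 activity; the luminescent signal after BugLite lysis is the measured value, with a prior CellTiter-Fluor read for cell health.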
# TCR act: T cell receptor activation; primary human leukocytes, anti-CD3, IL-2 HTRF, 48 h; AID 504894; Potency, µM (series often up to 9.22 µM), inactives show top-dose activation of IL-2 secretion, most hits filed as activators; 330,000 tested, under 10 active; also: % of control where 0% means no effect
#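 IL-2 release read by HTRF sandwich (Eu cryptate donor, d2 acceptor, 665 nm emission) after 48 hr exposure of primary human leukocytes to compound together with anti-CD3 beads in the absence of co-stimulatory signals.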
# Nrf2 activator: activates Nrf2 signaling; AREc32 ARE-luciferase reporter (MCF7-derived line), luminescence, 24 h; Potency, µM (series often up to 46.1 µM), for inactives: at the top dose activation, hits mostly activators; hit rate 0.31% among 410,000; AID 624171; also: potency is read from the fitted curve at half-maximal effect; % of control where 0% means no effect; nearly all actives have a fitted effect of over 65% in size
#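 AREc32_Fluc, 1000 cells/well, OPTI-MEM + 5% FBS, o/n 37 deg C 5% CO2; 23 nL cpd by pin tool, 24 hr; Steady-Glo 30 min RT, luminescence.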
# A549 viability: counter-screen for Nrf2 inhibitors: cytotoxicity in A549 cells; A549 ARE-Fluc cells, CellTiter-Fluor viability, 18-24 h; Potency, µM (doses to about 46 µM), for the others: at the top dose activity change, negative = cytotoxicity, usual class: inhibitors; hit rate 0.16% among 390,000; also: potency is read from the fitted curve at half-maximal effect; % is scaled to controls: 0 for no effect and ±100 for the full control effect
#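 A549 ARE-Fluc cells in 5% FBS OPTI-MEM, 5000 cells/well, rested 2 h then exposed to compounds in concentration-response for 18-24 h at 37 °C. Viability by CellTiter-Fluor fluorescence (Ex 405/Em 525) after 30 min; luciferase luminescence (BugLite, 15 min, RT) read afterwards.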
# miR-21 reporter: miR-21 reporter, rising signal | 340,000 tested, under 10 active | AID 2288 | HeLa miR-21 FLuc reporter, luciferase, 48 h | Potency, µM (titrated, usually from 38.3 µM), for inactives: at the highest dose reporter change, positive = more light; active = well fitted rising curve with a large enough effect; inconclusive = small, poorly fitted or top-dose-only effect; inactive = no such curve, though single readings can be large or run the other way;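 further: % of control where 0% means no effect; miR-21 action dims this reporter so a rising signal means less miR-21 action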
#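 Luminescence from a firefly luciferase reporter carrying a miR-21 binding site downstream, stably expressed under a CMV promoter in HeLa cells that make miR-21 endogenously, reports miRNA modulation after 48 h compound exposure up to approximately 40uM final.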
# ClpP mod: qHTS Assay for Activators of ClpP; ATP-dependent Clp protease proteolytic subunit (Bacillus subtilis (strain 168)), P80244; purified B. subtilis ClpP, FRET peptide cleavage, 20 min; Potency, µM (highest dose often 57.5 µM), for the others: at the highest dose activity change, negative = active; hit rate 1.9% among 340,000; active = well fitted falling curve with a large enough effect; inconclusive = small, poorly fitted or top-dose-only effect; inactive = no such curve, though single readings can be large or run the other way; also: potency is read from the fitted curve at half-maximal effect; the source files actives as falling curves though it sought activators and does not explain the sign; nearly all actives have a fitted effect of over 65% in size
#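 Purified B. subtilis ClpP, 10 microg/mL final in Tris/HCl pH8 with KCl, BSA, glycerol and Tween-20, cleaved an Abz/nitrotyrosine-quenched decapeptide. Fluorescence (ex 320, em 430) was read at 0 and 20 min at room temperature. Delta was normalized to 5.8 microM ADEP and DMSO/no-enzyme controls.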
# The depositor's hits bear a star; ? = inconclusive; nt = no result; [ ] = another dose, or the depositor's remark. Unless noted, calls follow the shape of the dose curve; as a rule, active = well fitted curve in the direction sought with a large enough effect; inconclusive = small, poorly fitted or top-dose-only effect, or another doubt; inactive = no such curve, though single readings can be large; an effect the other way counts as inactive or inconclusive.
# The opening 6 entries, to show the layout:
SMILES,Nrf2 block,TCR act,Nrf2 activator,A549 viability,miR-21 reporter,ClpP mod
Cc1ccc(-n2c(C)nc3c(cnn3-c3ccc(F)cc3)c2=O)cc1,15µM*,0%,-1%,-11%,-5%,-1%
Cn1ccnc1Sc1ccc(C(N)=O)cc1[N+](=O)[O-],-7%,1%,0%,-11%,0%,32µM*
Cn1nnnc1Sc1ccc(C(=O)O)cc1[N+](=O)[O-],-16%,-1%,0%,2%,6%,nt
Cc1cccc(OCc2nnc(SCC(=O)N(c3ccccc3)C3CCS(=O)(=O)C3)o2)c1 (centres undefined),21µM*,10%,2%,-13%,nt,-1%
O=C(NCC(c1cccs1)S(=O)(=O)c1ccccc1)c1ccc(C(F)(F)F)cc1 (centres undefined),nt,nt,4%,7%,10%,0%
CC1=CC(c2ccc(Cl)cc2)n2nc(NS(=O)(=O)c3ccc(C)cc3)nc2N1 (centres undefined),3%,-9%,0%,23%,-7%,22µM*

# The listing, from the start:
SMILES,Nrf2 block,TCR act,Nrf2 activator,A549 viability,miR-21 reporter,ClpP mod
Cc1ccc(-n2c(C)nc3c(cnn3-c3ccc(F)cc3)c2=O)cc1,15µM*,0%,-1%,-11%,-5%,-1%
Cn1ccnc1Sc1ccc(C(N)=O)cc1[N+](=O)[O-],-7%,1%,0%,-11%,0%,32µM*
Cn1nnnc1Sc1ccc(C(=O)O)cc1[N+](=O)[O-],-16%,-1%,0%,2%,6%,nt
Cc1cccc(OCc2nnc(SCC(=O)N(c3ccccc3)C3CCS(=O)(=O)C3)o2)c1 (centres undefined),21µM*,10%,2%,-13%,nt,-1%
O=C(NCC(c1cccs1)S(=O)(=O)c1ccccc1)c1ccc(C(F)(F)F)cc1 (centres undefined),nt,nt,4%,7%,10%,0%
CC1=CC(c2ccc(Cl)cc2)n2nc(NS(=O)(=O)c3ccc(C)cc3)nc2N1 (centres undefined),3%,-9%,0%,23%,-7%,22µM*
Cc1ccc(C2C=C(c3ccccc3)Nc3nc(N4C(=O)CCC4=O)nn32)cc1 (centres undefined),-1%,-34%,-1%,?,-11%,nt
CC1=CC(c2ccc(Cl)cc2)n2nc(N3C(=O)CCC3=O)nc2N1 (centres undefined),2%,-3%[46.1 µM],-1%,16%,-3%,10µM*
CC1=CC(c2ccccc2)n2nc(NS(=O)(=O)c3ccc(C)cc3)nc2N1 (centres undefined),3%,-1%,0%,?,-11%,?
Brc1cccc[n+]1CCCCCC[n+]1ccccc1Br,nt,nt,nt,nt,nt,-2%
O=C(O/C(=C/c1ccccc1)C(F)(F)F)c1ccccc1,-1%,1%,0%,1%,nt,nt
Cc1nc(Nc2ccccc2F)c2oc3ccccc3c2n1,?,1%,3.2µM*,4%,-34%,0%
COCCN(Cc1cc2cc3c(cc2nc1Cl)OCO3)C(=O)Nc1ccc(F)cc1,13µM*,6%,0%,-5%,-4%,-1%
COCCN(Cc1cc2cc3c(cc2nc1Cl)OCO3)C(=O)Nc1ccc(OC)cc1,7.3µM*,-1%[46.1 µM],3%,-7%,-9%,1%
Cc1cccc(-n2c(SCC(=O)N3CC(=O)Nc4ccccc43)nc3ccccc3c2=O)c1,?,nt,3%,-7%,1%,0%
O=C1COc2ccc(C(=O)CSc3ccccc3C(=O)O)cc2N1,-26%,2%,0%,0%,-1%,0%
CC(c1ccccc1)n1c(SCC(=O)N2CC(=O)Nc3ccccc32)nc2ccccc2c1=O (centres undefined),16µM*,0%[46.1 µM],0%[9.22 µM],-17%,27%,0%
Cc1cccc(-n2c(SCC(=O)N3CC(=O)Nc4ccccc43)nc3ccccc3c2=O)c1C,23µM*,-1%[46.1 µM],-1%,-29%,8%,-6%
CC(C)c1ccccc1-n1c(SCC(=O)c2ccc3c(c2)NC(=O)CO3)nc2ccccc2c1=O,2.9µM*,5%,-1%,-19%,-7%,nt
COCC(C)n1c(SCC(=O)N2CC(=O)Nc3ccccc32)nc2ccccc2c1=O (centres undefined),?,-1%,-1%,8%,nt,-1%
Cc1cc2nccc(C)c2cc1C,nt,nt,nt,nt,nt,-12%
Nc1ncnc2c1ncn2[C@@H]1O[C@H](C(=O)Nc2cc(C(F)(F)F)cc(C(F)(F)F)c2)[C@@H](O)[C@H]1O,nt,nt,1%,nt,nt,0%
Cc1cccc(CSCc2ccc(C(=O)NC(C)C)o2)c1,21µM*,2%,0%,1%,22%,-1%
Cc1ccc(CNC(=O)c2ccc(CSCc3cccc(C)c3)o2)cc1,nt,nt,3%,17%,-2%,-4%
CSc1ccc(/C=C/c2cc(=O)c3ccccc3[nH]2)cc1,-15%,-4%[46.1 µM],4%[9.22 µM],2%,-27%,?
O=c1cc(/C=C/c2cccs2)[nH]c2ccccc12,13µM*,6%,0%,-14%,16%,-9%
O=C1CC(c2ccccc2)(c2ccccc2)c2ccccc21,?,1%,0%,-5%,nt,32µM*
Cc1ccc2onc(CC(=O)N3CCN(c4cccc(C)c4C)CC3)c2c1,?,nt,3%,-1%,-14%,-1%
COc1ccc(N2CCN(c3ccc(N4C(=O)COCC4=O)cc3[N+](=O)[O-])CC2)cc1,?,-5%[46.1 µM],0%,0%,-4%,28µM*
COc1ccc(N2CCN(c3ccc(N4C(=O)CC(C)C4=O)cc3[N+](=O)[O-])CC2)cc1 (centres undefined),-49%,0%,0%,-12%,-1%,-4%
O=C1CCc2cc(S(=O)(=O)NCc3ccccc3)ccc2N1,3%,nt,nt,-5%,nt,nt
O=C1c2cnc3nc(SCc4ccc(Cl)cc4)nn3c2CC2c3ccccc3CCN12 (centres undefined),?,0%,-1%,-2%,-7%,32µM*
Clc1ccc(CSc2ncccn2)cc1,18%,2%,-1%,-6%,-26%,1%
O=C1c2ccccc2C(=O)N1CCCCN(C(=O)c1cc([N+](=O)[O-])cc([N+](=O)[O-])c1)c1ccc(Cl)cc1,23µM*,4%[46.1 µM],0%,-12%,-3%,-5%
O=C1c2ccccc2C(=O)N1CCCCN(C(=O)c1ccc([N+](=O)[O-])cc1)c1ccc(Cl)cc1,?,-12%,0%,-20%,7%,-1%
C=C1C=C(C(F)F)n2ncc(C(=O)N3CCN(c4ccccc4)CC3)c2N1,nt,nt,nt,nt,nt,2%
Cc1ccc(C)c(NC(=O)CSc2nnc(CCNC(=O)OC(C)(C)C)o2)c1,-4%,-20%,0%,13%,13%,0%
Cc1ccc(NC(=O)CSc2nnc(CCCCCNC(=O)OC(C)(C)C)o2)c(C)c1,16µM*,-11%[46.1 µM],-1%,-14%,4%,0%
c1ccc(Nc2ccccc2Nc2ccccn2)nc1,nt,-4%[46.1 µM],2%,-3%,-7%,-1%
Oc1cccc2ccc(Nc3ccccn3)nc12,?,2%,-2%,4.1µM*,?,-2%
CCn1ccc(C(=O)Nc2ccc(S(=O)(=O)Nc3ccccc3OC)cc2)n1,15µM*,-2%,2%,-12%,14%,-2%
COc1ccccc1NS(=O)(=O)c1cccc(NC(=O)Nc2ccc(Cl)cc2)c1,?,nt,5%,?,?,nt
COc1ccccc1NS(=O)(=O)c1cccc(NC(=O)Nc2ccccc2)c1,2.6µM*,-6%[46.1 µM],0%,-12%,?,1%

# Source: PubChem BioAssay (National Center for Advancing Translational Sciences (NCATS))
